What was measured:
[1] = target: CDK7/Cyclin H/MAT1 trimeric complex (Homo sapiens, UniProt P50613); test: CDK7 kinase assay, Caliper/LabChip EZ Reader (Biortus Biosciences); conditions: read-out: CDK7 Inhibition (IC50), CDK7/Cyclin H/MAT1 10 nM, ATP 2 mM, FAM-CDK7tide 2 μM, 30 min incubation
A673 cells = test: Inhibition of proliferation of A673 cells (CyQUANT, 72 hour); conditions: read-out: A673 IC50, 72 hour proliferation
Protocol: A673 cells are a cell line derived from human muscle Ewing's sarcoma. Representative compounds of the invention were tested at different concentrations (from 4 μM to 126.4 pM; 0.5 log serial dilutions) for their ability to inhibit the proliferation of A673 cells. Known CDK inhibitors flavopiridol and triptolide were used as positive controls. Cells were grown in Dulbecco's Modified Eagle's Medium, +10% FBS+1 mM Sodium Pyruvate. The cells were cultured at 37° C. in a humidified chamber in the presence of 5% CO2. Proliferation assays were conducted over a 72 hour time period. CyQUANT® (Life Technologies, Chicago, Ill. USA) was used to assess the anti-proliferative effects of the compounds following manufacturer's directions and utilizing the reagents supplied with the CyQUANT® kit. In this table, “A” represents an IC50 of less than 500 nM; “B” an IC50 of between 500 nM and 5 μM; and “C” an IC50 of greater than 5 μM.

Protein sequences, listed by entry. Tags and fused reporters are not part of them.
UniProt P50613, whole entry: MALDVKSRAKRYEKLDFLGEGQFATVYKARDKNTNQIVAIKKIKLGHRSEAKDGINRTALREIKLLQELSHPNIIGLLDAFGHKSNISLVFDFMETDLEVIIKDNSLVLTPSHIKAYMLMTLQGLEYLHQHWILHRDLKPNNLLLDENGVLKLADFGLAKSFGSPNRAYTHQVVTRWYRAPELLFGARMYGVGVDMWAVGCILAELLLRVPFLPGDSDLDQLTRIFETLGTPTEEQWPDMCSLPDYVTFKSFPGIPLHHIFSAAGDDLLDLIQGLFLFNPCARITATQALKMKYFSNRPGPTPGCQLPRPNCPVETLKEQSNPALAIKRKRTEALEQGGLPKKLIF
UniProt P51946, whole entry partner: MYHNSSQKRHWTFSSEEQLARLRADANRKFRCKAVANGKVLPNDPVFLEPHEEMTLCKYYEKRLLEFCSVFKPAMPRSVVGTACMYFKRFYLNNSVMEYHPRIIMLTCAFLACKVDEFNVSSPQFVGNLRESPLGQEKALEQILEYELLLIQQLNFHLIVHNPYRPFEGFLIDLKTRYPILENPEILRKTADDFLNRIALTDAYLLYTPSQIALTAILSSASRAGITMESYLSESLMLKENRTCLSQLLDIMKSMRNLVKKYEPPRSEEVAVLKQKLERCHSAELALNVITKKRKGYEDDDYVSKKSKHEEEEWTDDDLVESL
UniProt P51948, whole entry partner: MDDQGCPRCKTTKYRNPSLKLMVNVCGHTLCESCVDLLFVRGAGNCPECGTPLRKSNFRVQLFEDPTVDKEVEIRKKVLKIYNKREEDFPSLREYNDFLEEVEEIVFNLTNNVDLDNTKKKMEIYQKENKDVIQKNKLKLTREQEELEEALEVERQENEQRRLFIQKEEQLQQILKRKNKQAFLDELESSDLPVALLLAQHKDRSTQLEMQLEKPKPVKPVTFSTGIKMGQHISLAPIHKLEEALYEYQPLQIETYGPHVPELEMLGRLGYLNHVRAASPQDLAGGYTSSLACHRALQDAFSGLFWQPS

SMILES: CN(C)C/C=C/C(=O)N1CCC2(CC1)CC(CN[C@H]1CCC[C@@H](Nc3ncc(Cl)c(-c4c[nH]c5ccccc45)n3)C1)C2
- IC50 [1]: < 0.1 µM
- IC50 (A673 cells): < 0.5 µM

SMILES: Cc1cccc2c(-c3nc(N[C@@H]4CCC[C@H](N5CCN(C(=O)/C=C/CN(C)C)CC5)C4)ncc3Cl)c[nH]c12
- IC50 [1]: < 0.1 µM
- IC50 (A673 cells): < 0.5 µM

SMILES: C/C=C/C(=O)N1CCN([C@H]2CCC[C@@H](Nc3ncc(Cl)c(-c4c[nH]c5ccccc45)n3)C2)CC1
- IC50 [1]: 0.1 to 1 µM
- IC50 (A673 cells): < 0.5 µM

SMILES: CN(C)C/C=C/C(=O)N1CC[C@H](N(C)[C@H]2CCC[C@@H](Nc3ncc(Cl)c(-c4c[nH]c5ccccc45)n3)C2)C1
- IC50 [1]: < 0.1 µM
- IC50 (A673 cells): < 0.5 µM

SMILES: CN(C)C/C=C/C(=O)N1CCC(CN[C@H]2CCC[C@@H](Nc3ncc(Cl)c(-c4cnn5ccccc45)n3)C2)C1 (stereo partly shown)
- IC50 [1]: < 0.1 µM
- IC50 (A673 cells): < 0.5 µM

SMILES: CN(C)C/C=C/C(=O)Nc1ccc(C(=O)N[C@H]2CCC[C@@H](Nc3ncc(Cl)c(-n4cnc5ccccc54)n3)C2)nc1
- IC50 [1]: < 0.1 µM
- IC50 (A673 cells): < 0.5 µM

SMILES: C=CC(=O)N1CCN([C@H]2CCC[C@@H](Nc3ncc(Cl)c(-c4noc5ccccc45)n3)C2)CC1
- IC50 [1]: 0.1 to 1 µM
- IC50 (A673 cells): < 0.5 µM

SMILES: C=CC(=O)N1CC(CN[C@H]2CCC[C@@H](Nc3ncc(Cl)c(-c4c[nH]c5ccccc45)n3)C2)C1
- IC50 [1]: < 0.1 µM
- IC50 (A673 cells): < 0.5 µM

SMILES: C=CC(=O)N1CCN([C@@H]2CCC[C@@H](Nc3ncc(Cl)c(-c4c[nH]c5ccccc45)n3)C2)CC1C(F)(F)F (stereo partly shown)
- IC50 [1]: > 1 µM
- IC50 (A673 cells): < 0.5 µM

SMILES: CN(C)C/C=C/C(=O)N1CC2(CCN([C@@H]3CCC[C@@H](Nc4ncc(Cl)c(-c5c[nH]c6ccccc56)n4)C3)C2)C1
- IC50 [1]: < 0.1 µM
- IC50 (A673 cells): < 0.5 µM

SMILES: C=CC(=O)N1CCC(CN[C@H]2CC[C@@H](Nc3ncc(Cl)c(-c4c[nH]c5ccccc45)n3)C2)CC1
- IC50 [1]: < 0.1 µM
- IC50 (A673 cells): 0.5 to 5 µM

SMILES: C=CC(=O)N1CCC(CN[C@]2(C)CCC[C@H](Nc3ncc(Cl)c(-c4cnn5ccccc45)n3)C2)CC1
- IC50 [1]: 0.1 to 1 µM
- IC50 (A673 cells): < 0.5 µM

SMILES: COC/C=C/C(=O)N1CCN([C@H]2CCC[C@@H](Nc3ncc(Cl)c(-c4c[nH]c5ccccc45)n3)C2)CC1
- IC50 [1]: 0.1 to 1 µM
- IC50 (A673 cells): < 0.5 µM

SMILES: C=CC(=O)N1CCN([C@H]2CCC[C@@H](Nc3ncc(CC)c(-c4c[nH]c5ccccc45)n3)C2)CC1
- IC50 [1]: < 0.1 µM
- IC50 (A673 cells): < 0.5 µM

SMILES: CN(C)C/C=C/C(=O)N1CCCN([C@H]2CCC[C@@H](Nc3ncc(Cl)c(-c4c[nH]c5ccccc45)n3)C2)CC1
- IC50 [1]: < 0.1 µM
- IC50 (A673 cells): < 0.5 µM

SMILES: CN(C)C/C=C/C(=O)N1CCC(C)(CN[C@H]2CCC[C@@H](Nc3ncc(Cl)c(-c4c[nH]c5ccccc45)n3)C2)CC1
- IC50 [1]: < 0.1 µM
- IC50 (A673 cells): < 0.5 µM

SMILES: C=CC(=O)N1CCN([C@H]2CCC[C@@H](Nc3ncc(C#N)c(-c4c[nH]c5ccccc45)n3)C2)CC1
- IC50 [1]: < 0.1 µM
- IC50 (A673 cells): < 0.5 µM

SMILES: C=CC(=O)N1CCN([C@H]2CCC[C@@H](Nc3ncc(Cl)c(-c4c[nH]c5cccc(Cl)c45)n3)C2)CC1
- IC50 [1]: 0.1 to 1 µM
- IC50 (A673 cells): < 0.5 µM

SMILES: C=CC(=O)NCC1CN(C2CCCC(Nc3ncc(Cl)c(-c4c[nH]c5ccccc45)n3)C2)CCO1 (single isomer, unassigned) [335]
- IC50 [1]: 0.1 to 1 µM
- IC50 (A673 cells): < 0.5 µM

SMILES: CN(C)C/C=C/C(=O)N1CCC(N2CCC[C@@H](Nc3ncc(Cl)c(-c4c[nH]c5ccccc45)n3)C2)CC1
- IC50 [1]: < 0.1 µM
- IC50 (A673 cells): < 0.5 µM

SMILES: CN(C)C/C=C/C(=O)N1CCN([C@H]2CCC[C@@H](Nc3ncc(Cl)c(-c4cn(C)c5ccccc45)n3)C2)CC1
- IC50 [1]: 0.1 to 1 µM
- IC50 (A673 cells): < 0.5 µM

SMILES: C=CC(=O)N1Cc2cn([C@H]3CCC[C@@H](Nc4ncc(Cl)c(-c5c[nH]c6ccccc56)n4)C3)nc2C1
- IC50 [1]: 0.1 to 1 µM
- IC50 (A673 cells): < 0.5 µM

SMILES: C=CC(=O)N1CCC(N(CC)C[C@H]2CCC[C@@H](Nc3ncc(Cl)c(-c4c[nH]c5ccccc45)n3)C2)CC1
- IC50 [1]: < 0.1 µM
- IC50 (A673 cells): < 0.5 µM

SMILES: C=CC(=O)N1CCN([C@@]2(C)CCC[C@@H](Nc3ncc(Cl)c(-c4c[nH]c5ccccc45)n3)C2)CC1
- IC50 [1]: < 0.1 µM
- IC50 (A673 cells): < 0.5 µM

SMILES: CN(C)C/C=C/C(=O)N[C@H]1CC[C@H](CN[C@H]2CCC[C@@H](Nc3ncc(Cl)c(-c4c[nH]c5ccccc45)n3)C2)CC1
- IC50 [1]: < 0.1 µM
- IC50 (A673 cells): < 0.5 µM

SMILES: C=CC(=O)N1CCN([C@H]2CCC[C@@H](Nc3ncc(Cl)c(-c4coc5ccccc45)n3)C2)CC1
- IC50 [1]: < 0.1 µM
- IC50 (A673 cells): < 0.5 µM

SMILES: CN(C)C/C=C/C(=O)Nc1cnn([C@H]2CCC[C@@H](Nc3ncc(Cl)c(-c4c[nH]c5ccccc45)n3)C2)c1
- IC50 [1]: < 0.1 µM
- IC50 (A673 cells): < 0.5 µM

SMILES: CN(C)C/C=C/C(=O)N1CCC2(CC1)CN([C@H]1CCC[C@@H](Nc3ncc(Cl)c(-c4c[nH]c5ccccc45)n3)C1)C2
- IC50 [1]: < 0.1 µM
- IC50 (A673 cells): < 0.5 µM

SMILES: C=CC(=O)N1CCC(CN[C@H]2CCC[C@@H](Nc3ncc(Cl)c(-c4cnn5ccccc45)n3)C2)C1 (stereo partly shown)
- IC50 [1]: 0.1 to 1 µM
- IC50 (A673 cells): < 0.5 µM

— patent US10106526B2, “Inhibitors of cyclin-dependent kinase 7 (CDK7)” (SYROS PHARMACEUTICALS, INC., priority 2014, dated 2018)
